Results as given in PMC9898996 (Bioorganic & medicinal chemistry, 2022).

Sequences of proteins named here, by UniProt entry; tags and fusion partners are left off.
UniProt P14416, whole entry: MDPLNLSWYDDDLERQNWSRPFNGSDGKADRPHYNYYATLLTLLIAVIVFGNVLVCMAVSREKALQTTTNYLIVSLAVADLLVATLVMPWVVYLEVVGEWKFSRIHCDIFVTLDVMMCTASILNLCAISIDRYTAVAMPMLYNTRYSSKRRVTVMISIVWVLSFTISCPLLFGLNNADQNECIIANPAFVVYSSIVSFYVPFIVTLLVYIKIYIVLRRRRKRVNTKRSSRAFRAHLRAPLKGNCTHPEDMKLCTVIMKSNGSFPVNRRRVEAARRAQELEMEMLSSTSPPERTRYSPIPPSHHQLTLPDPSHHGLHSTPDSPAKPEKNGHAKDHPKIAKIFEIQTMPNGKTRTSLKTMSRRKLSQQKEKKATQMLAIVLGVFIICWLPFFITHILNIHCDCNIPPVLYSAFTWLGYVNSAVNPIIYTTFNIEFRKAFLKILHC

Target: human D2 receptor (Homo sapiens, UniProt P14416)

For CCCN(CCC)C1CCc2c(O)cccc2C1 (single isomer, unassigned; (-)) [(−)-5-OH-DPAT, 5-OH-DPAT], the EC50 was 41 ± 6 nM.
